# Experiment: Solubility (water, organic solvents, 1% NaHCO3, basic solutions)
# Conditions: result in words
substance,measurement,value
benzenepentacarboxylatobis[ethylenediamine] platinum(II)] [Example 4],solubility in 1% NaHC03 solution,dissolves

# — patent EP0137900B1, “Bis-platinum complexes as antitumor agents” (priority 1983, dated 1985)
